From ChEMBL document CHEMBL3779817, “Investigations on the 4-Quinolone-3-carboxylic Acid Motif. 7. Synthesis and Pharmacological Evaluation of 4-Quinolone-3-carboxamides and 4-Hydroxy-2-quinolone-3-carboxamides as High Affinity Cannabinoid Receptor 2 (CB2R) Ligands with Improved Aqueous Solubility” (J Med Chem, 2016)

Amino acid sequences for entries named in this document (tags omitted).
UniProt P21554, whole entry: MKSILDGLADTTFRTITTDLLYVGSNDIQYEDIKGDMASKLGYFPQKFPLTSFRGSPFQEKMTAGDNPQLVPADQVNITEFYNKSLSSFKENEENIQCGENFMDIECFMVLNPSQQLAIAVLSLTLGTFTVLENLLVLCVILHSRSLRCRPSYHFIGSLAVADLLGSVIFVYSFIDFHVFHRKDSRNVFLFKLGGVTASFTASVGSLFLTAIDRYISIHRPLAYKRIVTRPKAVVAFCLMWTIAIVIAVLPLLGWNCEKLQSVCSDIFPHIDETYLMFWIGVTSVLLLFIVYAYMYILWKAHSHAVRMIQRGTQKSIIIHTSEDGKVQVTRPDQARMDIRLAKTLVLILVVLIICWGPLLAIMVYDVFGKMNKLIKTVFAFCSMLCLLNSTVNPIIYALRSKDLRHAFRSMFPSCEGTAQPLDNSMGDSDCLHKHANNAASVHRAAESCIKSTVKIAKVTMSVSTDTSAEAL
UniProt P34972, whole entry: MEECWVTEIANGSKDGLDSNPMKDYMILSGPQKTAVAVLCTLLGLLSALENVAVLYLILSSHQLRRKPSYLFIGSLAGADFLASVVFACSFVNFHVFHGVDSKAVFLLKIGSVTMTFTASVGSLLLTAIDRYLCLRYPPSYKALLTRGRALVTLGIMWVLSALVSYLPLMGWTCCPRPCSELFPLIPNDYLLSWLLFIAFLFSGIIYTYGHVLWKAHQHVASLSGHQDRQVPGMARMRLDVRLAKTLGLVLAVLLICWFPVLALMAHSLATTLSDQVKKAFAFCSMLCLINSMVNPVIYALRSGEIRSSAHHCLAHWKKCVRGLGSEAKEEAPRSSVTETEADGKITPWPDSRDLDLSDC

Assays:
Homo sapiens = species: Homo sapiens; experiment: Selectivity index, ratio of Ki for recombinant human CB1 receptor to Ki for recombinant human CB2 receptor
[1] = biological target: Cannabinoid receptor 1 (Homo sapiens) (UniProt P21554); details: HEK293
Cannabinoid receptor 2 = Cannabinoid receptor 2 (Homo sapiens, UniProt P34972); experiment: Displacement of [3H]-CP-55940 from human recombinant CB2 receptor expressed in HEK293 cells after 90 mins by Competition binding assay; assay type: cell-based

Structure (SMILES)	Ratio Ki (Homo sapiens)	Kieq [1]	Kieq (Cannabinoid receptor 2)
CCCCCn1c(=O)c(C(=O)NC23CC4CC(CC(C4)C2)C3)c(O)c2ccccc21	112	108 nM	0.97 nM
CCCCCn1cc(C(=O)NC23CC4CC(CC(C4)C2)C3)c(=O)c2cc(C(C)C)ccc21	194	1220 nM	6.3 nM
CCCCCn1c(=O)c(C(=O)NC23CC4CC(CC(C4)C2)C3)cc2cc(C(C)C)ccc21	42	11 nM	0.26 nM
CCCCCn1c2c(c(O)c(C(=O)NC34CC5CC(CC(C5)C3)C4)c1=O)CCCC2	24	8.7 nM	0.37 nM
CCCCCn1cc(C(=O)NC23CC4CC(CC(C4)C2)C3)c(=O)c2cc(C(C)C)c(F)cc21	> 1300	> 10000 nM	7.5 nM
